# AlphaSeq binding of Ab-14 light chain variants to a spike HR2 peptide

Values reported by Li et al. 2023, doi:10.1038/s41467-023-39022-2 (FLAb copy).

All variants were tested on one target, the spike HR2 peptide PDVDLGDISGINAS (SARS-CoV-2).

The variants keep the heavy chain, the linker and the frameworks of Ab-14 (scFv order VH, the linker GGGGSGGGGSGGGGS, VL).
VH: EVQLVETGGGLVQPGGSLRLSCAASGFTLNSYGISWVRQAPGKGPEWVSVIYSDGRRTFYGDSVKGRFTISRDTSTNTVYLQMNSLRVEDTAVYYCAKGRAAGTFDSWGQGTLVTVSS
VL: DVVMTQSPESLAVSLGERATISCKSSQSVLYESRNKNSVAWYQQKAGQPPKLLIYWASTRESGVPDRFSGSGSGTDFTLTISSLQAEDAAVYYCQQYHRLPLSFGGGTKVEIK

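The starting antibody came from a phage panning campaign against this peptide. This is the validation round: designs drawn from the data on random variants, tested in the same kind of assay. Group labels follow the data file (En: ensemble of fine-tuned language models; GP: Gaussian process model; HC: hill climbing; Gen: genetic algorithm; Gibbs: Gibbs sampling; a sequence that several methods proposed may carry one label only). AlphaSeq pools MATa yeast showing the antibodies with MATalpha yeast showing the peptide. Binding brings cells together so that they mate, and sequencing counts the barcode pairs among the diploids. The ratio of observed to expected reads was calibrated, replicate by replicate, on BCL2-family standards whose Kd was known from biolayer interferometry. The assay was run in six technical replicates.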

Each variant's VL is given in full. Variants here have more than six changes. Numbers give log10(Kd / nM), so 0 is 1 nM and 3 is 1 µM. Smaller is tighter. A mean of the replicates is given; it leaves out those without a signal. "nd" means that the variant was in the library but no mating with the target was seen in any replicate; the authors take this as a sign of poor binding, and no number exists. Of ten entries with the parent sequence, four were seen in most replicates (averages 0.34 to 2.37), three in one and three in none, so single entries are noisy. Empty control strains, which show no peptide, gave a signal in 4% of pairings with all light chain designs; the median was 2.64 and 95% of these signals were weaker than 1.59. No background was subtracted. Also given: how often the same scFv was detected with the empty control strains. The authors' rule: three or more of the six replicates give a measured affinity, fewer mean a poor binder. A sequence measured in both rounds can read differently, since the two assays cover different ranges.

The variant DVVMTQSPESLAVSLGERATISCAFSQSVLYESRNQNAVAWYQQKAGQPPKLLIYEASTRCDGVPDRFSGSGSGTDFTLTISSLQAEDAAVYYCQQYHRLPLSFGGGTKVEIK [GP_Gibbs] showed -0.34 (6 of 6 replicates; controls 2 of 18). For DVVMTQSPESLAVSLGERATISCHISQMVMYGSCNVNNVAWYQQKAGQPPKLLIYQVSTREEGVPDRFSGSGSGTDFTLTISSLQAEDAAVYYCQQYHRLPLSFGGGTKVEIK [En_HC], the assay gave 0.65 (6 of 6 replicates; controls 0 of 18). The variant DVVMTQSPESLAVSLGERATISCQILMATMQETYNRNSVAWYQQKAGQPPKLLIYHAETREDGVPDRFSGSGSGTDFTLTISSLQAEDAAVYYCQSYHRLPLSFGGGTKVEIK [En_HC] showed 0.93 (6 of 6 replicates; controls 1 of 18). The variant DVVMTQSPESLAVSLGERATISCSISGFMKSLSAHKNSVAWYQQKAGQPPKLLIYDMTNREDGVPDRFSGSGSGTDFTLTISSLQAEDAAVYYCQQYDRLPLSFGGGTKVEIK [En_Gen] showed 0.22 (6 of 6 replicates; controls 1 of 18). For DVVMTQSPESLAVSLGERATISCQIAETFMQVGIHANNIAWYQQKAGQPPKLLIYNATVRPAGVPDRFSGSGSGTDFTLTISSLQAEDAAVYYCQQYLRLPLMFGGGTKVEIK [En_Gibbs], the assay gave 0.80 (6 of 6 replicates; controls 0 of 18). The variant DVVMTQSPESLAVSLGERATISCKMDQWVFYGDRWKNSVAWYQQKAGQPPKLLIYNASTREQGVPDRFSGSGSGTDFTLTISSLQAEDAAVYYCQQYHRLPLSFGGGTKVEIK [GP_Gibbs] gave 0.48 (6 of 6 replicates; controls 1 of 18). The variant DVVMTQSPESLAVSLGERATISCKQDFSEPGESRNKNSVAWYQQKAGQPPKLLIYDASTRMSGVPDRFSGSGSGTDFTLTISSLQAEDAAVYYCQQYHRLPLSFGGGTKVEIK [GP_Gibbs] showed -0.07 (6 of 6 replicates; controls 0 of 18). The variant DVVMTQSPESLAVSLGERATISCHITYGMMVHGRHGSSIAWYQQKAGQPPKLLIYQAEERAKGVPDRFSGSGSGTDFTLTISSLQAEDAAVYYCQQYDRLPLAFGGGTKVEIK [En_Gen] showed 1.28 (6 of 6 replicates; controls 0 of 18).

The variant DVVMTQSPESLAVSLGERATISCTIFQERSYEDGDERNIAWYQQKAGQPPKLLIYDARTRNIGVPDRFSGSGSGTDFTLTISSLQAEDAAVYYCQQYNRLPLVFGGGTKVEIK [En_Gibbs] gave 0.64 (6 of 6 replicates; controls 0 of 18). For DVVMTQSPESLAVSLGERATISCKLTMITGLEKVSNNNVAWYQQKAGQPPKLLIYEMETRERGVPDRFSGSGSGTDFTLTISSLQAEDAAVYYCQQYNRLPLSFGGGTKVEIK [En_Gen], the assay gave 0.09 (6 of 6 replicates; controls 1 of 18). The variant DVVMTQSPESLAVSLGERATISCKITTTMRFEQKQKNNIAWYQQKAGQPPKLLIYEVTTRSKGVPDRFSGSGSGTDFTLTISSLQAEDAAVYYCQQYYRLPLAFGGGTKVEIK [En_Gen] gave 1.10 (6 of 6 replicates; controls 1 of 18). With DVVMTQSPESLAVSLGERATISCHLLQEVTGHSRNRNSVAWYQQKAGQPPKLLIYHNSTREDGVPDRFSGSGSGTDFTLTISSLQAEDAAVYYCQQYDRLPLSFGGGTKVEIK [En_HC] the result was 2.83 (4 of 6 replicates; controls 1 of 18). With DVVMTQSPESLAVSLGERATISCILMQPYKEPGAAVNNIAWYQQKAGQPPKLLIYDGSIRLQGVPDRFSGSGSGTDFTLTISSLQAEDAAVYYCQQYHRLPLVFGGGTKVEIK [En_Gibbs] the result was 0.37 (6 of 6 replicates; controls 1 of 18). The variant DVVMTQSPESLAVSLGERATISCKMWDYEYGTNAMNSAIAWYQQKAGQPPKLLIYNASLESDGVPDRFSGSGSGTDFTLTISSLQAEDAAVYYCQQYDRLPLTFGGGTKVEIK [En_Gibbs] gave nd (0 of 6 replicates; controls 0 of 18). For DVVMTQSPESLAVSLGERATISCKLDQKNRWNGMANYNVAWYQQKAGQPPKLLIYDSNHRVDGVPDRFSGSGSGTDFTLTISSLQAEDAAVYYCQQYHRLPLIFGGGTKVEIK [En_Gibbs], the assay gave 0.84 (6 of 6 replicates; controls 1 of 18). For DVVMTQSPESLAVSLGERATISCSLYEMNYELSGKTHSVAWYQQKAGQPPKLLIYDNSTRGDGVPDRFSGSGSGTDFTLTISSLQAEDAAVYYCQQYFRLPLEFGGGTKVEIK [En_Gen], the assay gave 0.71 (5 of 6 replicates; controls 0 of 18).

With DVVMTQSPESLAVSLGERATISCKIGLVTNGISFSKNSVAWYQQKAGQPPKLLIYEQSTREDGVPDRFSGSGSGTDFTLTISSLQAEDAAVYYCQQYDRLPLAFGGGTKVEIK [En_HC] the result was 2.27 (3 of 6 replicates; controls 0 of 18). The variant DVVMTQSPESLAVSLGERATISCMISQLYNMGQFAINSVAWYQQKAGQPPKLLIYQASQRNEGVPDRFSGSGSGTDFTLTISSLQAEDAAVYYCQQYERLPLMFGGGTKVEIK [En_Gen] gave 0.90 (5 of 6 replicates; controls 1 of 18). For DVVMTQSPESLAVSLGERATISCKLGMTLNELMMKKNNVAWYQQKAGQPPKLLIYDLVMRENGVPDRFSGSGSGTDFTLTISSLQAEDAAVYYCQQYHRLPLSFGGGTKVEIK [En_Gen], the assay gave -0.19 (6 of 6 replicates; controls 0 of 18). The variant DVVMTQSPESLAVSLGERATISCKSSPSEYYEDRNFNSVAWYQQKAGQPPKLLIYHASQRESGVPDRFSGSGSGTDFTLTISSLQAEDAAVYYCQQYHRLPLSFGGGTKVEIK [GP_Gibbs] gave 0.61 (6 of 6 replicates; controls 0 of 18). The variant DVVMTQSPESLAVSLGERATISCKISQSILFHSGKKNAIAWYQQKAGQPPKLLIYQMEMREEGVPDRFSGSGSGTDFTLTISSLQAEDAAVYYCQQYDRLPLSFGGGTKVEIK [En_HC] gave 0.76 (6 of 6 replicates; controls 0 of 18).